Screen for blockers of NLRP3-driven cell death, PubChem AID 2061109 (Seoul National University).
Cells: mouse bone marrow macrophages; stimulus: LPS priming, then nigericin; dose: 5 µM; read-out: propidium iodide uptake by live imaging.
Inhibition in %: 0 = stimulated control, 100 = untreated cells; values below 0 were filed as 0. * marks the depositor's active call (above 70%). Part of the library is listed.

| compound | inhibition (%) |
|---|---|
| Cn1sc(=O)n(Cc2ccccc2)c1=O | 68.2 |
| CC(=O)N[C@H]1[C@@H](OC(C)C)O[C@H](COC(C)=O)[C@@H](OC(C)=O)[C@@H]1OC(C)=O | 68.1 |
| CO[C@@]1(NC(=O)C2SC(=C(C(N)=O)C(=O)O)S2)C(=O)N2C(C(=O)O)=C(CSc3nnnn3C)CS[C@@H]21 | 68.1 |
| CSc1ccc(CN2CCCC(Nc3ccc4[nH]ncc4c3)C2)cc1 | 68.1 |
| Cc1cc(C)c(S(=O)(=O)n2cc(C)cc2C)c(C)c1 | 68.0 |
| CC(=O)c1ccc2c(c1)N(CCCN(C)C)c1ccccc1S2.O=C(O)/C=C\C(=O)O | 67.9 |
| c1ccc(Cn2c(NCc3ccco3)nc3ccccc32)cc1 | 67.8 |
| O=C1Nc2ccccc2/C1=C/c1ccccn1 | 67.7 |
| COc1ccc2c(c1O)-c1c(O)c(OC)cc3c1[C@H](C2)[N+](C)(C)CC3.[Cl-] | 67.7 |
| CCCc1ccc(O)c(-c2cc(CCC)ccc2O)c1 | 67.5 |
| OC1c2ccccc2-c2ccccc21 | 67.5 |
| CC(C)(C)C(=O)Oc1ccc(S(=O)(=O)Nc2ccccc2C(=O)NCC(=O)[O-])cc1.O.O.O.O.[Na+] | 67.5 |
| Nc1ccc(-c2cccs2)cc1NC(=O)c1ccc2nc(N3CCNCC3)ccc2c1 | 67.5 |
| C[C@H](Nc1ccc(C#N)n(C)c1=O)c1cc2cc(Cl)ccc2[nH]c1=O | 67.4 |
| Cn1cc(-c2cn3nccc3c(-c3cnn(C4(CC#N)CC(C#N)C4)c3)n2)cn1 | 67.3 |
| Nc1[nH]c(=S)[nH]c(=O)c1N=Cc1ccccc1 | 67.3 |
| COc1ncc(-c2ccc3c(Nc4cc(Oc5cc(F)cc(F)c5)cc(C(=O)O)c4)c(S(=O)(=O)NC4CC4)cnc3c2)c(OC)n1 | 67.3 |
| Cl.Cl.Clc1ccc(Nc2nnc(Cc3ccncc3)c3ccccc23)cc1 | 67.3 |
| CC1=CC(=O)CC(C)(C)[C@@]1(O)/C=C/C(C)=C\C(=O)O | 67.2 |
| CS(=O)(=O)CCC#N | 67.1 |
| CC(=O)C1=C(O)C=C2Oc3c(C(C)=O)c(O)c(C)c(O)c3[C@]2(C)C1=O | 66.8 |
| CCCCCCCc1cc(=O)c2ccccc2n1O | 66.7 |
| Cn1ncnc2c(=O)n(C)c(=O)nc1-2 | 66.7 |
| CCNCc1nc2c(N)nc3ccccc3c2n1CC(C)(C)O | 66.6 |
| O=C(NNC(=O)c1ccc(CNS(=O)(=O)c2ccc(F)c(Cl)c2)cc1)c1ccccc1 | 66.5 |
| CCc1nn2c(C)cc(C)nc2c1Cc1ccc(-c2nnc(C3CCNCC3)o2)cc1 | 66.4 |
| C[C@@H]1OCC2(CCN(c3cnc(Sc4ccnc(N)c4Cl)c(N)n3)CC2)[C@@H]1N | 66.4 |
| CC(C)Nc1cc(-c2c[nH]c(C(=O)N[C@H](CO)c3cccc(Cl)c3)c2)c(Cl)cn1 | 66.4 |
| COc1cc2c(cc1OC)[C@@H](Cc1ccc(Oc3cc(C[C@@H]4c5cc(OC)c(OC)cc5CCN4C)ccc3O)cc1)N(C)CC2 | 66.3 |
| NS(=O)(=O)c1cc(C(=O)[O-])c(NCc2ccco2)cc1Cl.[Na+] | 66.2 |
| CC(=O)Nc1ccc(C)c(C(=O)N[C@H](C)c2cccc3ccccc23)c1 | 66.1 |
| CC(C)Nc1nc(N)c(C(=O)c2ccccc2)s1 | 66.1 |
| Cl.Cl.NCCNc1ncc(C(N)=O)c(Nc2cccc(C(F)(F)F)c2)n1 | 65.9 |
| NC(=O)c1ncc[nH]c1=O | 65.8 |
| Cn1cc(-n2cnc3c(NCc4nc5cc(Cl)c(Cl)cc5[nH]4)nc(N4CCOCC4)nc32)cn1 | 65.6 |
| COC(=O)c1cc(OC)c2c(c1-c1c(CO)cc(OC)c3c1OCO3)OCO2 | 65.5 |
| Cn1c(N2CCCCS2(=O)=O)nc(C(=O)NCc2ccc(F)cc2)c(O)c1=O | 65.4 |
| COc1cc2c(cc1OC)CN(CCc1ccc(-n3nnc(-c4cc(OC)c(OC)cc4NC(=O)c4cc(=O)c5ccccc5o4)n3)cc1)CC2 | 65.1 |
| CCOC(=O)[C@H](C)C[C@@H](Cc1ccc(-c2ccccc2)cc1)NC(=O)CCC(=O)[O-].CCOC(=O)[C@H](C)C[C@@H](Cc1ccc(-c2ccccc2)cc1)NC(=O)CCC(=O)[O-].[Ca+2] | 65.1 |
| Cc1noc(-c2ccc(-c3ccc(CC(=O)O)cc3)cc2)c1NC(=O)O[C@H](C)c1ccccc1Cl | 64.9 |
| C=C(F)C(=O)N1CCN(c2nc(OC[C@@H]3CCCN3C)nc3c2CCN(c2cccc4cccc(Cl)c24)C3)C[C@@H]1CC#N | 64.8 |
| Fc1ccc(Nc2nc3ccccc3nc2Nc2ccc(F)cc2)cc1 | 64.8 |
| CC1(C)C(=O)N(c2ccc(C#N)c(C(F)(F)F)c2)C(=S)N1c1ccc(C(=O)O)c(F)c1 | 64.4 |
| O=C(O)CCCCCCCCCCCNC(=O)NC12CC3CC(CC(C3)C1)C2 | 64.4 |
| Fc1ccc2c(/C=C/c3nn[nH]n3)c[nH]c2c1 | 64.2 |
| O=C1C(c2c(O)[nH]c3ccccc23)=Nc2ccccc21 | 64.2 |
| C[C@H]1O[C@H](OC2[C@@H](O)[C@@H](O)C(O)[C@H](O)[C@H]2O)[C@@H](N)C[C@@H]1N=C(N)C(=O)O.Cl.O | 64.0 |
| C[C@H](CC[C@@H](O[C@@H]1O[C@H](CO)[C@@H](O)[C@H](O)[C@H]1O[C@@H]1O[C@H](CO)[C@@H](O)[C@H](O)[C@H]1O)C(C)(C)O)[C@H]1CC[C@@]2(C)[C@H]3CC=C4[C@@H](CC[C@H](O[C@@H]5O[C@H](CO[C@@H]6O[C@H](CO)[C@@H](O)[C@H](O)[C@H]6O)[C@@H](O)[C@H](O)[C@H]5O)C4(C)C)[C@]3(C)[C@H](O)C[C@]12C | 63.9 |
| CC(=O)N[C@@H](Cc1c[nH]c2ccccc12)C(=O)OCc1cc(C(F)(F)F)cc(C(F)(F)F)c1 | 63.9 |
| COc1cccc2c1c(O)c(C(=O)N(C)c1ccc(C(F)(F)F)cc1)c(=O)n2C | 63.8 |
| O=C1CN(c2cn[nH]c(=O)c2Cl)CCN1Cc1ccccc1C(F)(F)F | 63.6 |
| COc1ccc(C(NC(=O)c2cnc(-c3cccnn3)[nH]c2=O)c2ccc(OC)cc2)cc1 | 63.5 |
| CC(=O)N[C@H]1CSSC[C@@H](C(N)=O)NC(=O)[C@H](C(C)C)NC(=O)[C@H](C)NC(=O)[C@H](Cc2cnc[nH]2)NC1=O.O=C(O)C(F)(F)F | 63.5 |
| O=C(NC(=O)c1c(F)cccc1F)Nc1cc(Cl)c(OC(F)(F)C(F)F)c(Cl)c1 | 63.5 |
| O=C(c1ccc(C(=O)N2CCC(N3CCCCC3)CC2)cc1)N1CCC(N2CCCCC2)CC1 | 63.3 |
| Cc1cc(C(=O)Nc2cccc(C(=O)Nc3cccc(C(F)(F)F)c3)c2)on1 | 63.1 |

Repeating the final 6 entries:

compound,inhibition (%)
O=C1CN(c2cn[nH]c(=O)c2Cl)CCN1Cc1ccccc1C(F)(F)F,63.6
COc1ccc(C(NC(=O)c2cnc(-c3cccnn3)[nH]c2=O)c2ccc(OC)cc2)cc1,63.5
CC(=O)N[C@H]1CSSC[C@@H](C(N)=O)NC(=O)[C@H](C(C)C)NC(=O)[C@H](C)NC(=O)[C@H](Cc2cnc[nH]2)NC1=O.O=C(O)C(F)(F)F,63.5
O=C(NC(=O)c1c(F)cccc1F)Nc1cc(Cl)c(OC(F)(F)C(F)F)c(Cl)c1,63.5
O=C(c1ccc(C(=O)N2CCC(N3CCCCC3)CC2)cc1)N1CCC(N2CCCCC2)CC1,63.3
Cc1cc(C(=O)Nc2cccc(C(=O)Nc3cccc(C(F)(F)F)c3)c2)on1,63.1